ChEMBL document CHEMBL1130119, “2-Carbomethoxy-3-aryl-8-oxabicyclo[3.2.1]octanes: potent non-nitrogen inhibitors of monoamine transporters” (J Med Chem, 1997)

The chains behind the UniProt entries cited, without tags or fusion partners.
UniProt P31645, whole entry: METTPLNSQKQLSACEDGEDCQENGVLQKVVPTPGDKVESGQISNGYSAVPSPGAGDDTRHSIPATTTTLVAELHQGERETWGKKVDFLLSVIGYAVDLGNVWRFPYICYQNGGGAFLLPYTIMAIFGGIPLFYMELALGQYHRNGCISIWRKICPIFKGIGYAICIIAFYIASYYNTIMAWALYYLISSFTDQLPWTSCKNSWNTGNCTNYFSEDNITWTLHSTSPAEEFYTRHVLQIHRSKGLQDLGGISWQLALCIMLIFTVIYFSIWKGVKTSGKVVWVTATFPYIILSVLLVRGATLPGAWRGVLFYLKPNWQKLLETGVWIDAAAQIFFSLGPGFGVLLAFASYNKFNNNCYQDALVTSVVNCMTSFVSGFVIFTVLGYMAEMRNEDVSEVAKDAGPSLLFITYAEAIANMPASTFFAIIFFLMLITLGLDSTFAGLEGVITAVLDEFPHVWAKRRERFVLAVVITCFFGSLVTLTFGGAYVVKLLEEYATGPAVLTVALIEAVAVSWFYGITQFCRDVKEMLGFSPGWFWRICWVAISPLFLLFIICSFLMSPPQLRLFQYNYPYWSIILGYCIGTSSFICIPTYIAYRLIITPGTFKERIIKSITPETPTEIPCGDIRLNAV

Target: Sodium-dependent serotonin transporter (Homo sapiens, UniProt P31645)
Assay: Inhibition of [3H]citalopram binding to the serotonin transporter (5-HT) in monkey caudate-putamen.
Assay type: tissue-based, Cercopithecidae
Details: target entry is the homologue from another species

Compound `COC(=O)[C@@H]1C2CC[C@H](C[C@@H]1c1ccccc1)N2C` (stereo in doubt; 19a) has an IC50 of 21 nM.
